Laboratory results from patent US7968306B2, “Method for measuring activity of a specific fraction of albumin” (Wisconsin Alumni Research Foundation, priority 2002, dated 2011).
“And” between values parts separate entries of the source, which are not always exact repeats. Equal entries are not always repeated. Values belong to the substance of their own block, whether it stands above or below them.

Assays:
[1] = target: T1, porcine pancreatic PLA2 (Sus scrofa, UniProt P00592); assay: Continuous fluorescent assay of PLA2 (Bis-BODIPY FL C11-PC labeled DOPC-PG liposomes); conditions: for effect on PLA2 activity at high protein level: 256 μg protein; for amount displaying similar inhibitory and stimulating effects on PLA2: 3 ml assay; for loss of activity after treating the protein in boiling water: boiling water for 5 min; for effect on PLA2 activity at low protein level: less than 30 μg protein in 3 ml assay; for effects of commercial human albumin on PLA2 activity: Sigma products, FIG. 43
T1 sequence (P00592 23-146): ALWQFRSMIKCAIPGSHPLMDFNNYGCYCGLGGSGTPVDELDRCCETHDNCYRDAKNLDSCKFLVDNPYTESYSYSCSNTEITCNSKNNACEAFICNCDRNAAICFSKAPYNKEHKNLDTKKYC

[2] = target: T2, porcine pancreatic sPLA2 (Sus scrofa, UniProt P00592); assay: SFA activity assay (sPLA2-induced albumin-liposome interaction, BODIPY-FA-labeled liposomes); type: biochemical; conditions: BODIPY-FA DOPC-PG liposomes, single cuvette
T2 construct: purchased Sigma P6534; host or cells: porcine pancreas
T2 sequence (P00592 23-146): T1 sequence (P00592 23-146)

[3] = target: T3, recombinant human sPLA2-IIA (Homo sapiens, UniProt P14555); assay: sPLA2-IIA microplate fluorescent assay (BODIPY-PC labeled liposomes); type: biochemical; conditions: 0.005 or 0.05 mg albumin in 0.3 ml microplate assay, FIG. 53
T3 construct: gift: Dr. Wonhwa Cho, Department of Chemistry, University of Illinois at Chicago
T3 sequence (P14555 21-144): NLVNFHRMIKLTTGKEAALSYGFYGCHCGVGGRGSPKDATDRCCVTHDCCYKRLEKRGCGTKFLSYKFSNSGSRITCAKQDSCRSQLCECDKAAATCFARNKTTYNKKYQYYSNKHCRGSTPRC

[4] = 0.08 mg albumin in 3 ml assay mixture

Substance: Protein-I: protein purified from human serum by G100, MonoQ and Vydac C4 columns; identified as albumin (SFA)
effect on PLA2 activity at high protein level [1]: produced negative ΔFI below the baseline
effect on PLA2 activity at high protein level ([1]; listed as protein-I): totally inhibited PLA2 activity
amount displaying similar inhibitory and stimulating effects on PLA2 [1]: 128 µg
effect on PLA2 activity at intermediate protein level ([1]; 60 to 100 μg protein): PLA2 inhibitory activity in the beginning of the reaction and then showed PLA2 stimulating activity
loss of activity after treating the protein in boiling water [1]: lost all of its ΔFI increasing and decreasing effects
loss of activity after treating the protein in boiling water ([1]; listed as protein-I): lost all of its stimulating and inhibiting activities
effect on PLA2 activity at low protein level [1]: increased ΔFI
effect on PLA2 activity at low protein level ([1]; listed as protein-I): stimulated PLA2

FI change (SFA activity) in presence of sPLA2 [2]: much lower than that of FA-free albumin
effect on ΔFI in the sPLA2 assay [1, 4]: increased ΔFI
effect on ΔFI in the PLA2 reaction ([1]; 0.32 mg to 0.64 mg albumin): much less inhibitory effect
effects of commercial human albumin on PLA2 activity [1]: much less PLA2 inhibitory activity
Substance: globulin-free albumin: human serum albumin, globulin free (A8763), Sigma Chemical Co.

Substance: Albumin: human serum albumin used in the lysoPC mixing experiment
TFI ([1]; with lysoPC (9 nmol), 5 ng PLA2, 37° C., 2 min, truncated α1-AT 6 μg, intact α1-AT 20 μg, albumin 20 μg): 46.01 and 35.91
% of control ([1]; with lysoPC (9 nmol), control LysoPC + PLA2, truncated α1-AT 6 μg, intact α1-AT 20 μg, albumin 20 μg): 113.1% and 151.2%
TFI ([1]; without lysoPC, 5 ng PLA2, 37° C., 2 min, truncated α1-AT 6 μg, intact α1-AT 20 μg, albumin 20 μg): 66.20 and 48.19
% of control ([1]; without lysoPC, control PLA2 (5 ng), truncated α1-AT 6 μg, intact α1-AT 20 μg, albumin 20 μg): 139.6% and 198.9%

FI change (SFA activity) in presence of sPLA2 ([2]; listed as FAF-Alb): caused FI increase
effect on ΔFI in the sPLA2 assay [1, 4]: increased ΔFI
effect on ΔFI in the sPLA2 assay ([1]; 0.64 mg albumin in 3 ml assay mixture, 2-min reaction): reduced far below the baseline
TFI ([1]; 0.64 mg of each albumin in the PLA2 reaction mixture, 2 assays): -91.87±2.03
amount displaying similar inhibitory and stimulating effects on PLA2 [1]: 320 µg
Substance: fatty acid-free albumin: human serum albumin, fatty acid free (A3782), Sigma Chemical Co., prepared from globulin-free product
effects on recombinant human sPLA2-IIA activity [3]: ΔFI-increasing and ΔFI-decreasing effects
FI change (SFA activity) in presence of sPLA2 [2]: increased ΔFI much higher than that generated by the same amount of globulin-free albumin
effect on ΔFI in the sPLA2 assay ([1]; 0.32 mg albumin in 3 ml assay mixture): reduced ΔFI in the first 60 sec to the level below the baseline, and then gradually increased ΔFI to above the baseline level
effects of commercial human albumin on PLA2 activity [1]: exhibited the stimulating and inhibitory effects on PLA2
